This is a selection; strong and weak results do not stand in their true shares. Results filed as inconclusive are left out. Active and inactive are the calls of the source. Rule as the data show it: active = activity change below about -50%; inconclusive = mostly about -30% to -49%; inactive = weaker than that.
assay: qHTS for Inhibitors of Inflammasome Signaling: IL-1-beta AlphaLISA Primary Screen; conditions: THP-1 LPS/ATP IL-1B secretion, 16 h, at 57.5 µM, hits give low values
How it was run: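 THP-1 cells pretreated 1 hr with compounds (up to 57.5 uM final), then stimulated with LPS (250 ng/mL final) plus ATP (1.25 mM final); secreted IL-1B measured by AlphaLISA after 16 hr, decreased signal indicating inhibition.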
% is scaled to controls: 0 for no effect and ±100 for the full control effect.

SMILES | activity change
Cc1ccc(OP(=O)(Nc2ccc([N+](=O)[O-])cn2)Oc2ccc(C)cc2)cc1 | inactive: 9.87%
[N-]=[N+]=NC1CCCCC1NC(=O)c1cc([N+](=O)[O-])cc([N+](=O)[O-])c1 (stereo not given) | inactive: 23.1%
Cc1ccc2nc3c(c(C)c2c1)CC(C(Cl)Cl)S3 (stereo not given) | inactive: -5.35%
ClCCSc1nnc(-c2cccnc2)o1 | inactive: -20.8%
CC(C)c1ccc(OP(=O)(Nc2ccccn2)Oc2ccccc2F)cc1 (stereo not given) | inactive: 28.6%
COC(=O)C1(C)COP(=O)(N2CCCCCC2)OC1 (stereo not given) | inactive: 6.21%
CCN(CC)C(=S)SC(NC=O)C(Cl)(Cl)Cl (stereo not given) | inactive: 15.2%
O=C(OC1CN2CCC1CC2)c1cccc2[nH]cnc12 (stereo not given) | inactive: -15%
CC(C)NC(=O)NP(=O)(Oc1ccccc1)Oc1ccccc1 | inactive: -6.27%
O=[N+]([O-])c1cc([N+](=O)[O-])c(-c2ccn[nH]2)s1 | active: -69.1%
Cc1c2c(nc3ccccc13)SC(C(Cl)Cl)C2 (stereo not given) | inactive: 6.01%
O=C(OC1CN2CCC1CC2)C12CC3CC(CC(C3)C1)C2 (stereo not given) | inactive: -14.2%
Cc1cc(=O)[nH]c(N[N+](=O)[O-])n1 | inactive: -12.5%
O=P1(N(CCCl)CCCl)OCCCN1CCCl (stereo not given) | inactive: 8.11%
O=P1(N(CCCl)CCCl)Nc2ccccc2N1 | inactive: 13.9%
COc1ccc2nc(NP(=O)(c3ccccc3)c3ccccc3)sc2c1 | inactive: -12.6%
COc1cc(I)ccc1[As](=O)(O)O | active: -86.4%
O=[N+]([O-])c1cc(Oc2ccc([N+](=O)[O-])cc2C(F)(F)F)cc([N+](=O)[O-])c1 | inactive: -29.6%
COc1ccc(N/C(=N/P(=O)(N2CCOCC2)N2CCOCC2)N2CCOCC2)cc1 | inactive: 12%
O=C(OC1CN2CCC1CC2)c1ccc(Cl)cc1 (stereo not given) | inactive: -8.39%
O=[As](O)(O)c1cccnc1 | inactive: -12%
CS(=O)(=O)c1ccc(Cl)c(NC(=O)COC(=O)C(O)(c2ccccc2)c2ccccc2)c1 | inactive: 0%

SMILES | activity change
O=[As](O)(c1cccc(O)c1)c1cccc(O)c1 | inactive: 10.2%
Cc1cccc(OCC(=O)OC2CN3CCC2CC3)c1 (stereo not given) | inactive: -2.95%
Cc1ccc(NCCc2c([N+](=O)[O-])cc([N+](=O)[O-])cc2[N+](=O)[O-])cc1 | inactive: -3.66%
Nc1cccc2c([As](=O)(O)O)cccc12 | inactive: 0%
CCCOP(=S)(Nc1nc(N)cc(=O)[nH]1)OCCC | inactive: 0.228%
COc1cc(C2NCCC3(OCCO3)C2(C)C)cc(OC)c1OC (stereo not given) | inactive: -11.5%
CCOP(=O)(Nc1cccc2ccccc12)OCC | inactive: 8.47%
CCOP1(=S)c2c(C)nn(CCC#N)c2N=C(c2ccccc2F)N1C (stereo not given) | inactive: -3.75%
O=P(Nc1nccs1)(c1ccccc1)c1nc2ccccc2s1 (stereo not given) | active: -73%
O=P(Nc1nccs1)(Oc1ccccc1)Oc1ccccc1 | inactive: 3.76%
CS(=O)(=O)c1cc([N+](=O)[O-])c2no[n+]([O-])c2c1 | inactive: 10.9%
O=C(O)COc1ccc([As](=O)(O)O)cc1[N+](=O)[O-] | inactive: 14.5%
Nc1ccccc1[As](=O)(O)c1ccccc1 | inactive: -2.24%
NC(=O)Nc1ccc([As](=O)(O)O)cc1 | inactive: 13.2%
N#CCCN(C(=O)COC(=O)C(O)(c1ccccc1)c1ccccc1)c1ccc(F)cc1 | inactive: -3.35%
CCOP1(=S)c2c(C)nn(CCC#N)c2N=C(c2ccc(F)cc2)N1C (stereo not given) | inactive: -5.94%
CN(C(=O)Cc1ccccc1)[C@@H]1CC[C@]2(CCCO2)C[C@H]1N1CCCC1 | inactive: -1.61%
CN(C)C(=O)c1cc([N+](=O)[O-])cc2c1-c1c(cc([N+](=O)[O-])cc1[N+](=O)[O-])C2=O | active: -96.9%
O=[N+]([O-])c1ccc2c(c1)nnn2O | inactive: -3.7%
CN(C(=O)Cc1ccc(Cl)c(Cl)c1)[C@H]1CC[C@@]2(CCCO2)C[C@@H]1N1CCCC1 | inactive: -6.65%
Cc1nn(-c2ccccc2)c2c1P(=O)(N1CCOCC1)N(C)C(c1ccccc1)=N2 (stereo not given) | inactive: -3.36%
Cc1ccc(C(=O)OC2CN3CCC2CC3)cc1 (stereo not given) | inactive: 17.4%

SMILES | activity change
CC1CCC(C(C)C)C(OP(=O)(Nc2ccccn2)c2ccccc2)C1 (stereo not given) | active: -89%
CN(C)C1(CNC(=O)c2ccc(S(C)(=O)=O)cc2)CCCCC1 | inactive: -10.5%
O=C(/C=C/c1ccccc1)OC1CN2CCC1CC2 (stereo not given) | inactive: -22%
CCCC1OP(=O)(Nc2ccccc2)OCC1CC (stereo not given) | inactive: 0.218%
Cc1ccc(S(=O)(=O)N(CCCN)CCCc2c(C)nc(N)[nH]c2=O)cc1 | inactive: -6.75%
O=P1(Nc2ncccn2)COc2ccccc2OC1 | inactive: 16.2%
Nc1cccc([As](=O)(O)c2ccccc2)c1 | inactive: 15%
NS(=O)(=O)c1cccc(NC(=O)COC(=O)C(O)(c2ccccc2)c2ccccc2)c1 | inactive: 20.6%
Cc1ccc(OCC(=O)OC2CN3CCC2CC3)cc1 (stereo not given) | inactive: 7.09%
O=[As](O)(c1cccs1)c1cccs1 | inactive: 5.2%
CCC1=CC2Cc3nc4ccc(Cl)cc4c(N)c3C(C1)C2 (stereo not given) | active: -90%
O=P1(Nc2ccccn2)COc2ccccc2OC1 | inactive: -9.66%
CCOP(=O)(NC(=NC(C)c1ccccc1)NC(C)c1ccccc1)OCC (stereo not given) | inactive: -17.6%
CN(CCCl)Cc1cc(Cl)c(NC2=NCCN2)c(Cl)c1 | inactive: -17.1%
CCOP(=O)(Nc1ccc(C)cn1)OCC | inactive: 8.31%
Clc1n[nH]nc1-c1nn[nH][15n]1 | inactive: 22.6%
O=P1(N(CCCl)CCCl)NCCC(C(F)(F)F)O1 (stereo not given) | inactive: -27.5%
CC(C)(C)C(=O)NC(Sc1ncccn1)C(Cl)(Cl)Cl (stereo not given) | inactive: -15.4%
COc1ccccc1CNC(=O)COC(=O)C(O)(c1ccccc1)c1ccccc1 | inactive: -0.766%
CC(C)/C=N\N=C(\N)N[N+](=O)[O-] | inactive: -5.28%
CC1(CBr)Cn2c(nc3ccccc3c2=O)S1 (stereo not given) | inactive: 7.38%

— PubChem BioAssay AID743279 (National Center for Advancing Translational Sciences (NCATS), 2014)
